Source: US12233161B1, “Lipids and lipid nanoparticle formulations” (LONGUIDE BIOPHARMA CORPORATION, priority 2024, dated 2025)

Tested on: mice
Test: In vivo delivery of small molecule IR780 by lipid nanoparticles in mice
Conditions: IV, 10 min, LNP 1.00:09.00:30.00:51.00:09.00 or IR780 alone

IR-780 iodide
% of organ targeting (Kidney): 13.6%
% of organ targeting (Liver): 13.6%
